Results on 56 molecules are retold here after PubChem BioAssay AID504894 (National Center for Advancing Translational Sciences (NCATS), 2011).

Only a part is listed here, and it is no random draw. Calls of active or inactive are those of the source. Calls follow the shape of the dose curve; as a rule, active = well fitted activation curve with a large enough effect; inconclusive = small, poorly fitted or top-dose-only effect, or another doubt; inactive = no such curve, though single readings can be large or run the other way.

The assay is described as follows: Activators of T cell receptors: qHTS campaign. Also: % of control where 0% means no effect. As to conditions: primary human leukocytes, anti-CD3, IL-2 HTRF, 48 h; at 9.22 µM (top of the series) unless noted. An excerpt:
Normally activation of naive T cells requires two signals. 1. A signal through the T cell receptor (TCR) which provides antigen specificity to the response. 2. Signals through co-stimulatory molecules, which are necessary for proliferation, survival and cytokine production. In the absence of co-stimulatory signals T cells are not effectively activated, and may even be rendered anergic or unresponsive to subsequent signaling. This lack of costimulation has been shown in multiple model systems to be a major factor in the limited strength and effectiveness of anti-tumor T cell responses. The goal of this project is to identify small molecule compounds that will stimulate T cell activation in the presence of TCR signaling but in the absence of co-stimulatory signals, thereby allowing activation of naive T cells in the absence of co-stimulation. Identification of such compounds would have clear experimental and clinical applications in instances where desirable antigen-specific immune responses are not generated due to a lack of co-stimulation, for example in the generation of anti-tumor responses. In collaboration between the National Cancer Institute and NIH Chemical Genomics Center, a high-throughput amenable screen was developed to discover small molecules that co-stimulate and activate human T cell receptors. The screen will be carried out using a novel homogeneous time resolved fluorescence energy transfer (HTRF) assay to measure production of the cytokine IL-2 by activated T cells and will be tested against the NIH Molecular Libraries Small Molecule Repository (MLSMR). NIH Chemical Genomics Center [NCGC] NIH Molecular Libraries Probe Centers Network [MLPCN] MLPCN Grant: MH090820-01 Assay Submitter (PI): Richard Hodes, National Cancer Institute, NIH
Primary human leukocytes are incubated with a-CD3 beads and compounds for 48 hr. The amount of secreted IL-2 is then assayed with a HTRF IL-2 kit. The presence of IL-2 cytokine captures the detection reagents and brings the a-IL-2-K and a-IL-2-d2 into close proximity. Upon excitation with 320nm light, the europium cryptate is capable of transferring energy to acceptor molecules within close proximity, resulting in acceptor molecule emission at 665nm.
`CP(=O)(Oc1ccccc1)OC(c1ccccc1)C(F)(F)F` (stereo unspecified): the activation of IL-2 secretion is inactive: 2.32%.
With `CCOP(C)(=S)SCC(=O)NC(C)C(=O)O` (stereo unspecified) the figure was inactive: -3.93%.
With `O=[N+]([O-])c1cc([N+](=O)[O-])c(O)c([N+](=O)[O-])c1.c1ccc(Oc2ccncc2)cc1` the figure was inactive: 1.88%; with `CCOC(=O)c1ccc(NP(C)(=O)Oc2ccc(OC)cc2)cc1` (stereo unspecified), inactive: -0.701% [at 46.1 µM].
With `CCN(CC)CCCOC(=O)C(O)(c1ccccc1)c1ccccc1` the figure was inactive: 5.2%.
For `CC(C)(C)c1ccc(OP(C)(=O)Nc2ccc(SC(F)(F)F)cc2)cc1` (stereo unspecified), the activation of IL-2 secretion was inactive: -16.9% [at 46.1 µM].
With `O=[N+]([O-])c1ccc2c(c1)C=Nc1ccccc1O2` the figure was inactive: 0.339%.
With `O=[N+]([O-])c1cc([N+](=O)[O-])c(Nc2cccnc2)c([N+](=O)[O-])c1` the figure was inactive: 5.03%; with `COc1ccccc1OP(C)(=O)Nc1cc(Cl)ccc1C` (stereo unspecified), inactive: 6.35%.
The value for `COc1ccc(OP(C)(=O)Nc2cccc(F)c2)cc1` (stereo unspecified) was inactive: 7.7%; that for `Cc1cc(C)cc(OP(C)(N)=O)c1` (stereo unspecified) was inactive: 4.82%.
Turning to `CCOC(=O)c1ccc(NP(C)(=O)Oc2ccccc2)cc1` (stereo unspecified), the activation of IL-2 secretion is inactive: 2.23% [at 46.1 µM].
With `COc1ccccc1OP(C)(=O)Nc1ccc(C)cc1` (stereo unspecified) the figure was inactive: -2.93%.
With `Cc1ccc(NP(C)(=O)Oc2ccccc2)c(C)c1` (stereo unspecified) the figure was inactive: -2.92%; with `COc1ccc(OP(C)(=O)Nc2ccccc2Br)cc1` (stereo unspecified), inactive: 0.132% [at 46.1 µM]; with `COc1ccccc1OP(C)(=O)Nc1ccc(C)c(C)c1` (stereo unspecified), inactive: 5.9%.
Regarding `Cc1cc(C)cc(OP(C)(=O)Nc2cccc(C(F)(F)F)c2)c1` (stereo unspecified), the activation of IL-2 secretion is inactive: -8.95%.
With `CP(=O)(OCCOc1ccccc1)OCCOc1ccccc1`, the activation of IL-2 secretion was inactive: -3.18%.
With `CP(=O)(Nc1ccc(Cl)cc1Cl)Oc1ccccc1` (stereo unspecified) the figure was inactive: -5.77%.
With `CCCCCCCCCCCCCCCC1C[N+](C)(C)CCOP(C)(=O)O1` (stereo unspecified) the figure was inactive: 0.0173%.
With `CN(C)CCOC(=O)C(O)(c1ccccc1)C1CCCC1` (stereo unspecified) the figure was inactive: 1.56%; with `COc1ccc(OP(C)(=O)Nc2ccccn2)cc1` (stereo unspecified), inactive: 2.98%; with `COc1ccccc1OP(C)(=O)Nc1ccc(Br)cc1` (stereo unspecified), inactive: 5.41%.
On to `CCc1ccc(OP(C)(=O)O)cc1`, for which the activation of IL-2 secretion was inactive: -0.521%.
With `CP(=O)(Nc1ccccn1)Oc1ccccc1` (stereo unspecified) the figure was inactive: -0.598%.
With `COc1ccccc1OP(C)(=O)Nc1ccc(C)cc1C` (stereo unspecified) the figure was inactive: 4.64%; with `O=[N+]([O-])c1cc([N+](=O)[O-])c(Nc2ccccn2)c([N+](=O)[O-])c1`, inactive: 3.23%.
With `Cc1c(NP(C)(=O)Oc2ccc(C(C)C)cc2)c(=O)n(-c2ccccc2)n1C` (stereo unspecified) the figure was inactive: -0.983%; with `CP(=O)(Oc1ccccc1)N1CCOC1=O` (stereo unspecified), inactive: -3.04%.
Take `CCc1ccc(OP(C)(=O)Nc2cccnc2)cc1` (stereo unspecified): the activation of IL-2 secretion is inactive: -0.0792%.
On to `COc1ccccc1OP(C)(=O)Nc1c(C)n(C)n(-c2ccccc2)c1=O` (stereo unspecified), for which the activation of IL-2 secretion was inactive: 2.38%.
With `O=C(OCCCN1CCCC1)C(O)(c1ccccc1)C1CCCCC1` (stereo unspecified) the figure was inactive: -6.2%.
With `CCN(CC)CC(O)COC(=O)C(O)(c1ccccc1)C1CCCCC1` (stereo unspecified) the figure was inactive: 3.26%; with `COc1ccc(OP(C)(=O)Nc2ccc(Br)cc2)cc1` (stereo unspecified), inactive: 4.56% [at 46.1 µM]; with `CN(C)C(=O)c1c([N+](=O)[O-])cc([N+](=O)[O-])cc1[N+](=O)[O-]`, inactive: 4.79%.
With `CC(C)(C)c1ccc(OP(C)(=O)O)cc1` the figure was inactive: 5.57%; with `CP(=O)(OC12CC3CC(CC(C3)C1)C2)OC12CC3CC(CC(C3)C1)C2`, inactive: -3.53%; with `CCOC(=O)c1ccc(NP(C)(=O)Oc2ccc(Cl)cc2)cc1` (stereo unspecified), inactive: -3.78% [at 46.1 µM].
On to `Nc1ccc2c(ccc3cccnc32)n1.O=[N+]([O-])c1cc([N+](=O)[O-])c(O)c([N+](=O)[O-])c1`, for which the activation of IL-2 secretion is inactive: 4.86%.
With `COc1ccc(NP(C)(=O)Oc2ccccc2OC)cc1` (stereo unspecified) the figure was inactive: -1.56%.
With `Cc1c(C(c2ccc3c(c2)OCO3)c2c(C)n(C)n(-c3ccccc3)c2=O)c(=O)n(-c2ccccc2)n1C.O=[N+]([O-])c1cc([N+](=O)[O-])c(O)c([N+](=O)[O-])c1` the figure was inactive: -4.1%; with `Cc1cc(-c2cccc3ccccc23)c(C)cn1.O=[N+]([O-])c1cc([N+](=O)[O-])c(O)c([N+](=O)[O-])c1`, inactive: 7.54%.
With `O=[N+]([O-])c1ccc(OP2(=O)COCCO2)cc1` (stereo unspecified) the figure was inactive: 5.29%.
On to `CCOP(C)(=S)SCC(=O)NC(C)(CC)C(=O)O` (stereo unspecified), for which the activation of IL-2 secretion was inactive: 11.8%.
With `CP(=O)(Nc1ccc(SC(F)(F)F)cc1)Oc1ccc(F)cc1` (stereo unspecified) the figure was inactive: 10.3%; with `Cc1ccccc1NP(C)(=O)Nc1ccccc1C`, inactive: 2.19%.
The value for `CP(=O)(Nc1ccc2c(c1)OCCO2)Oc1ccccc1` (stereo unspecified) was inactive: 2.1% [at 46.1 µM].
The value for `CC(C)c1ccc(OP(C)(=O)Nc2ccc(SC(F)(F)F)cc2)cc1` (stereo unspecified) was inactive: 1.1% [at 46.1 µM].
In the case of `CP(=O)(Nc1ccccc1F)Oc1ccccc1` (stereo unspecified), the activation of IL-2 secretion is inactive: 3.04%.
On to `O=C(OCCN1CCN(CCOCc2ccccc2)CC1)C(O)(c1ccccc1)c1ccccc1`, for which the activation of IL-2 secretion is inactive: -2.37% [at 46.1 µM].
With `COc1ccc(OP(C)(=O)Nc2ccc(SC(F)(F)F)cc2)cc1` (stereo unspecified) the figure was inactive: -1.22%; with `CCOC(=O)c1ccc(NP(C)(=O)Oc2ccc(F)cc2)cc1` (stereo unspecified), inactive: -1.02% [at 46.1 µM]; with `CCCCCOc1ccc(NP(C)(=O)Oc2ccc(Cl)cc2Cl)cc1` (stereo unspecified), inactive: -4.66%.
The value for `CP(=O)(Nc1ccccc1)Oc1ccc(F)cc1` (stereo unspecified) was inactive: 2.68%.
With `CCN(CC)CCCOC(=O)C(O)(c1ccccc1)C1CCCCC1` (stereo unspecified) the figure was inactive: -1.53% [at 46.1 µM]; with `Cc1c([N+](=O)[O-])cc([N+](=O)[O-])c(Br)c1[N+](=O)[O-]`, inactive: 3.97%.
